Experimental data reported in US9617300B2, “Dipeptidyl peptidase-IV inhibitor” (MORINAGA MILK INDUSTRY CO., LTD, priority 2012, dated 2017).

Sequences of proteins named here, by UniProt entry; tags and fusion partners are left off.
UniProt P27487, whole entry: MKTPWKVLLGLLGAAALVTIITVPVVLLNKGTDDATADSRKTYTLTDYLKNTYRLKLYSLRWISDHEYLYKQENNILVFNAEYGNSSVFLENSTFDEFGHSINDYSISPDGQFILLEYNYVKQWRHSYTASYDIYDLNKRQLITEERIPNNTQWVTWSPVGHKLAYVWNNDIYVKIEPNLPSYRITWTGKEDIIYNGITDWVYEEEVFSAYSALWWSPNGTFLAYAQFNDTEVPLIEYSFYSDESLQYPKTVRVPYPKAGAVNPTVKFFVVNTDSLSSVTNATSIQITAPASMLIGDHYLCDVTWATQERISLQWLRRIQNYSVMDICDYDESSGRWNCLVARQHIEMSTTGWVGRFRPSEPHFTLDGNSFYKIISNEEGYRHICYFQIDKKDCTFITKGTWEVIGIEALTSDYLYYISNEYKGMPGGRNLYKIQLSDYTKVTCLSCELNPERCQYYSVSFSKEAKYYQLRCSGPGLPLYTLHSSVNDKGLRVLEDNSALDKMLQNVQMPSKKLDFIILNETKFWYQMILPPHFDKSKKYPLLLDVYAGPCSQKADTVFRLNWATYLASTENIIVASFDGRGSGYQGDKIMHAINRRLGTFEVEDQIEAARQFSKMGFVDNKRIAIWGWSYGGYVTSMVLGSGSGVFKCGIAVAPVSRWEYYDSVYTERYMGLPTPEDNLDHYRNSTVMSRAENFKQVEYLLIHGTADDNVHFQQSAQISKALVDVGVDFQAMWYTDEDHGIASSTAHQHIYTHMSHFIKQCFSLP

molecular target: T1, Recombinant Human DPPIV/CD26 (Homo sapiens, UniProt P27487); assay: Dipeptidyl peptidase-IV (DPP-4) inhibiting activity, fluorescent substrate H-Gly-Pro-AMC; assay type: biochemical; settings: chemically synthesized peptides of Production Example 2; read-out: Test Example 1: DPP-4 inhibiting activity IC50 (converted)
T1 construct: purchased R&D Systems, Inc
Experimental: <Method for Measuring Dipeptidyl Peptidase-IV Inhibiting Activity>
The measurement of the dipeptidyl peptidase-IV (DPP-4) inhibition was conducted in accordance with the method by Kato et al (Kato, T. et al. Biochem. Med. 19, p 351, 1978).
Typically, the enzymatic reaction was conducted using Recombinant Human DPPIV/CD26 (R&D Systems, Inc.) as an enzyme (DPP-4) and H-Gly-Pro-AMC (Biomol GmbH) as a substrate.
To each well of a 96-well microplate (nunc 137101), water or an aqueous solution of the test substance at each concentration or a HPLC fraction was added, and then 20 μl of Tris-HCl (0.25M, pH 8.0) was added to make the entire volume 80 μl. After stirring, the plate was warmed for about 10 minutes in an incubator at 37° C., and 10 μl of the DPP-4 solution and 10 μl of the substrate solution were added (a total volume of 100 μl), and stirred to initiate the reaction. The well receiving water instead of the enzyme was used as a control.
The enzymatic reaction was measured using a microplate reader (SH-9000, Corona Electric Co., Ltd), and the measurement was conducted under the condition which kept the temperature in the chamber at 37° C. (5-minute intervals, ex360 nm/em460 nm).
From the fluorescent intensity value during the time period during which the fluorescent intensity was increased linearly (within 30 minutes after initiation of the reaction), the inhibiting activity was calculated using the following equation. As a positive control, Vildagliptin (JS Research Chemicals Trading) was employed. Inhibition ratio (%)=100%−[(Y−b)/(X−a)]×100% • X: Water+Enzyme+Substrate • Y: Test substance+Enzyme+Substrate • a: Water+Substrate • b: Test substance+Substrate
<Method for Obtaining IC50>
The test substance was diluted serially to several concentrations (10 to 2000 μg/ml), whose inhibition ratio was obtained. […] Then from this equation of the relationship, the concentration allowing the enzyme inhibition ratio to be 50% was calculated reversely, thereby calculating the IC50.

Row | SMILES | IC50
1 | CC(C)[C@H](N)C(=O)N1CCC[C@H]1C(=O)N[C@@H](CC(N)=O)C(=O)O [VPN, Val-Pro-Asn] | 17.4 µM
2 | CC(C)[C@H](N)C(=O)N1CCC[C@H]1C(=O)N[C@@H](CCC(N)=O)C(=O)O [VPQ, Val-Pro-Gln] | 7.59 µM
3 | CC(C)[C@H](N)C(=O)N1CCC[C@H]1C(=O)N[C@H](C(=O)O)C(C)C [VPV, Val-Pro-Val] | 3.19 µM
4 | CC(C)[C@H](N)C(=O)N1CCC[C@H]1C(=O)N1CCC[C@H]1C(=O)O [VPP, Val-Pro-Pro, reference compound] | > 6420 µM
5 | CC[C@H](C)[C@H](N)C(=O)N1CCC[C@H]1C(=O)N1CCC[C@H]1C(=O)O [IPP, Ile-Pro-Pro, reference compound] | 4120 µM
6 | CC(C)[C@H](N)C(=O)N1CCC[C@H]1C(=O)N[C@@H](CCCCN)C(=O)O [VPK, Val-Pro-Lys] | 30.4 µM
7 | CC(C)C[C@H](N)C(=O)N[C@@H](Cc1ccc(O)cc1)C(=O)O [LY, reference compound] | 1650 µM
8 | CC(C)[C@H](N)C(=O)N1CCC[C@H]1C(=O)NCC(=O)O [VPG, Val-Pro-Gly] | 12.5 µM
9 | CC(C)[C@H](N)C(=O)N1CCC[C@H]1C(=O)N[C@@H](CO)C(=O)O [VPS, Val-Pro-Ser] | 17.2 µM
10 | CC(C)[C@H](N)C(=O)N1CCC[C@H]1C(=O)N[C@@H](Cc1ccc(O)cc1)C(=O)O [VPY, Val-Pro-Tyr] | 18.9 µM

same assay, conditions: values given in running text (HPLC fraction, synthetic peptide, commercial casein degradation products); read-out: concentration for 50% inhibition of the dipeptidyl peptidase-IV (converted)

Row | SMILES | IC50
11 | CC(C)[C@H](N)C(=O)N1CCC[C@H]1C(=O)N[C@@H](C)C(=O)O [VPA, Val-Pro-Ala] | 6.66 µM
